# Ab-95 light chain CDR variants: yeast mating affinities

Target: peptide PDVDLGDISGINAS, taken from heptad repeat 2 (HR2) of SARS-CoV-2 spike.

Each scFv is VH, a (GGGGS)3 linker, VL, as in the parent Ab-95, and differs from it in the CDRs of the light chain only.
VH: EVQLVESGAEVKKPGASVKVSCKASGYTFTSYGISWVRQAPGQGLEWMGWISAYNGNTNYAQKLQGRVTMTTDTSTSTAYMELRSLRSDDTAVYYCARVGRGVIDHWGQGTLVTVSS
VL: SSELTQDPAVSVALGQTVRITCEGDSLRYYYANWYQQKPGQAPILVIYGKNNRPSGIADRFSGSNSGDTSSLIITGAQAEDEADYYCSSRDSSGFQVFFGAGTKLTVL

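The starting antibody came from a phage panning campaign against this peptide. AAYL52 was designed without a model: most single CDR substitutions and a random sample of double and triple ones. The scFvs were displayed on barcoded MATa yeast, the peptide on MATalpha yeast. After mating in shaken culture at 30 °C for 16 h, diploids were selected and their barcode pairs sequenced. Scores were corrected for input abundance and mapped to Kd with protein pairs of known affinity run in the same pool. Mating was done three times.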

Substitutions are numbered in sequence along the VL above, starting at 1 (not Kabat). Values are log10 of the apparent Kd in nM; lower means stronger binding. Averages over replicates are reported, and they cover detected replicates only. A pair that was not seen in that replicate is written "nd"; this usually means weak binding, but a binder can also be missed. For reference, the parent read 2.31 as the reference entry and 2.25 as a member of this library.

{"changes": "L27M Y30Q N52Y", "log10 Kd (nM) by replicate": "1.33 1.26 0.83", "log10 Kd (nM), mean": "1.14", "empty controls": "4/9 (4.79)"}
{"changes": "S88E R90P Q96A", "log10 Kd (nM) by replicate": "2.93 2.35 2.41", "log10 Kd (nM), mean": "2.57", "empty controls": "2/9 (4.03)"}
{"changes": "D25G L27R N33G", "log10 Kd (nM) by replicate": "2.81 2.82 2.45", "log10 Kd (nM), mean": "2.69", "empty controls": "3/9 (4.06)"}
{"changes": "S26D N33A V97Q", "log10 Kd (nM) by replicate": "4.49 5.47 4.69", "log10 Kd (nM), mean": "4.88", "empty controls": "1/9 (4.09)"}
{"changes": "Y31R N51S P54S", "log10 Kd (nM) by replicate": "3.54 3.44 4.06", "log10 Kd (nM), mean": "3.68", "empty controls": "6/9 (3.96)"}
{"changes": "E23Q S26T N51Q", "log10 Kd (nM) by replicate": "3.01 3.21 3.49", "log10 Kd (nM), mean": "3.24", "empty controls": "1/9 (4.14)"}
{"changes": "Y31L N51H D91N", "log10 Kd (nM) by replicate": "3.96 2.93 nd", "log10 Kd (nM), mean": "3.44", "empty controls": "0/9"}
{"changes": "D25H A32Y S88K", "log10 Kd (nM) by replicate": "nd nd nd", "log10 Kd (nM), mean": "nd", "empty controls": "4/9 (3.15)"}
{"changes": "R28M Q96A", "log10 Kd (nM) by replicate": "2.70 2.89 2.94", "log10 Kd (nM), mean": "2.84", "empty controls": "4/9 (4.54)"}
{"changes": "Y29C N33S P54F", "log10 Kd (nM) by replicate": "nd nd 3.20", "log10 Kd (nM), mean": "3.20", "empty controls": "3/9 (4.27)"}
{"changes": "Y31V N33T N51E", "log10 Kd (nM) by replicate": "3.41 nd nd", "log10 Kd (nM), mean": "3.41", "empty controls": "2/9 (4.47)"}
{"changes": "G24F G49M R90P", "log10 Kd (nM) by replicate": "nd 3.45 3.54", "log10 Kd (nM), mean": "3.49", "empty controls": "4/9 (3.59)"}
{"changes": "D25A N33T D91Y", "log10 Kd (nM) by replicate": "4.11 nd nd", "log10 Kd (nM), mean": "4.11", "empty controls": "2/9 (3.81)"}
{"changes": "D25W P54Q S88T", "log10 Kd (nM) by replicate": "3.14 4.18 3.76", "log10 Kd (nM), mean": "3.70", "empty controls": "5/9 (3.42)"}
{"changes": "Y29G R90V Q96E", "log10 Kd (nM) by replicate": "2.61 2.62 2.58", "log10 Kd (nM), mean": "2.60", "empty controls": "6/9 (4.45)"}
{"changes": "G49S G94W", "log10 Kd (nM) by replicate": "3.84 4.14 nd", "log10 Kd (nM), mean": "3.99", "empty controls": "2/9 (3.80)"}
{"changes": "R28S S88V S93C", "log10 Kd (nM) by replicate": "nd nd nd", "log10 Kd (nM), mean": "nd", "empty controls": "0/9"}
{"changes": "R28N N33C F95P", "log10 Kd (nM) by replicate": "nd nd 3.91", "log10 Kd (nM), mean": "3.91", "empty controls": "1/9 (2.21)"}
{"changes": "S55V S92E", "log10 Kd (nM) by replicate": "2.80 3.33 2.74", "log10 Kd (nM), mean": "2.95", "empty controls": "1/9 (3.66)"}
{"changes": "Y30C P54W S92R", "log10 Kd (nM) by replicate": "2.91 3.27 2.28", "log10 Kd (nM), mean": "2.82", "empty controls": "2/9 (3.50)"}

The 3 strongest on average among those seen in every replicate, once more:

{"changes": "L27M Y30Q N52Y", "log10 Kd (nM) by replicate": "1.33 1.26 0.83", "log10 Kd (nM), mean": "1.14", "empty controls": "4/9 (4.79)"}
{"changes": "S88E R90P Q96A", "log10 Kd (nM) by replicate": "2.93 2.35 2.41", "log10 Kd (nM), mean": "2.57", "empty controls": "2/9 (4.03)"}
{"changes": "Y29G R90V Q96E", "log10 Kd (nM) by replicate": "2.61 2.62 2.58", "log10 Kd (nM), mean": "2.60", "empty controls": "6/9 (4.45)"}

Nonspecific signal, from three strains lacking the peptide, appeared in 28% of pairings of library AAYL52, centred on 3.91 (5% of these signals below 2.90); values are not corrected for it. Also given: how often the same scFv was detected with the empty control strains, with their mean in brackets.

The measurements come from Engelhart et al. 2022 (doi:10.1038/s41597-022-01779-4) through the FLAb antibody collection.